Test results reported in PubChem BioAssay AID1632 (University of Pittsburgh Molecular Library Screening Center, 2009).
This is a selection; strong and weak results do not stand in their true shares. Results filed as inconclusive are left out.

Target: hexokinase 1 [Trypanosoma brucei]
Assay: T. brucei hexokinase 1 inhibitor potency, dose response, biochemical, IC50 (AID 1632)
Conditions: recombinant TbHK1 enzyme assay, absorbance read-out, at 100 µM, stronger effect = higher value

Compound `O=c1c2ccccc2[se]n1-c1ccccc1` has an inhibition of 85.7%.
